Amino acid sequences for entries named in this document (tags omitted). Residues count along the entry.
UniProt D3ZZK3, 20-986: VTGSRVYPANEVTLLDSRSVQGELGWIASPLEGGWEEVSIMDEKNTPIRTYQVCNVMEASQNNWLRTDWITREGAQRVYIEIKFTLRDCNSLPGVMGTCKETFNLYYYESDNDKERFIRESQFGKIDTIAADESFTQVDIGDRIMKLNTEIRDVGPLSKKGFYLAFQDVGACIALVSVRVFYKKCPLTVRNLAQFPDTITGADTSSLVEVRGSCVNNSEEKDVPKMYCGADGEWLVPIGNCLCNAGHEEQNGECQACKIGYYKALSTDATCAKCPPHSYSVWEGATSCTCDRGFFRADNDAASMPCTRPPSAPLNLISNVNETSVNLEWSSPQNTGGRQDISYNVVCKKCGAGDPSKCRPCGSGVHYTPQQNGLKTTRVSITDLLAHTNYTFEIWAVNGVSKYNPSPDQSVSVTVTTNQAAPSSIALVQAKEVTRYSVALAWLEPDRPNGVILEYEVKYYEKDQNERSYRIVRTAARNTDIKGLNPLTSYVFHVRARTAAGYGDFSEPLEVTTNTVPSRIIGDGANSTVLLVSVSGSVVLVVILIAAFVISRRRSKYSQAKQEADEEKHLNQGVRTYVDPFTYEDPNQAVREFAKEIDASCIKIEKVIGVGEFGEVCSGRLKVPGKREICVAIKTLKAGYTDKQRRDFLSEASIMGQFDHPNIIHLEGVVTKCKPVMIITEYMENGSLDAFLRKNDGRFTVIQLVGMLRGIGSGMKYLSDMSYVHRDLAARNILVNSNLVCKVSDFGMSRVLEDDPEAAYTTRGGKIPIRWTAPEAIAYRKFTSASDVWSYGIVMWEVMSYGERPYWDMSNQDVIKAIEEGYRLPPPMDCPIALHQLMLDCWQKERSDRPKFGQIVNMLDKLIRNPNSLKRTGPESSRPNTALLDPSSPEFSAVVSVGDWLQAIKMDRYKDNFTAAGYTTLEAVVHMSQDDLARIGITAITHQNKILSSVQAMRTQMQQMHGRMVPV

In patent publication US9765116B2, “Inhibitors of the Eph-A receptor and uses thereof” (Carmel Haifa University Economic Corporation Ltd., priority 2013, dated 2017):

Tests used:
[1] = molecular target: T1, EphA4 (Rattus norvegicus, UniProt D3ZZK3); experiment: In vitro pull down model using rat brain homogenate, Western blot for EphA4; format: binding; set-up: Homogenized rat brain was used as a source for EphA4 receptor; from tissue; host or cells: rat brain homogenate; details: 20 micrograms peptide, rat brain lysate, Streptavidin Agarose
Experimental: (§1) A pull-down assay was performed to test the affinity of peptide 1 and peptide 2 to EphA4 receptor. Homogenized rat brain was used as a source for EphA4 receptor. Rat brains were homogenized with Tris(tris(hydroxymethyl)aminomethane) buffer comprising 50 millimolar (mM) tris, 1% NP-40 and 2 mM ethylenediaminetetraacetic acid. Peptides 1 and 2, in amounts of 20 micrograms, were respectively incubated for 1 hour with equal amounts of brain lysate diluted with 50 mM Tris buffer at room temperature, followed by incubation for 1 hour with 50 microliters of Streptavidin Agarose. The samples were washed with 50 mM Tris buffer. Proteins were then eluted with boiled sample buffer and separated using gel electrophoresis (SDS-PAGE).
(§2) Western blot analysis was then performed to determine binding affinity to EphA4 receptor. Blots were blocked with blocking buffer (5% non-fat dry milk in wash buffer (10 mM Tris pH 7.5, 100 mM NaCl, 0.1% Tween 20)) for 1 hour at room temperature. Blots were then subjected to purified mouse anti-EphA4/Sek monoclonal antibodies, (1:3000—BD Transduction Laboratories) or rabbit eEF2 (elongation factor 2) antibody (1:1000—Cell Signaling) in blocking buffer for 1 hour at room temperature. […] The blots were subjected to electrochemiluminescence for 1 minute and visualized and quantified using a charge-coupled device camera (XRS; Bio-Rad).

[2] = molecular target: T2, eukaryotic elongation factor 2 (eEF2) (Rattus norvegicus, UniProt P05197); experiment: In vitro pull down model using rat brain homogenate, Western blot for eEF2 control; format: binding; details: 20 micrograms peptide, rat brain lysate
T2 construct: incubated for 1 hour with equal amounts of brain lysate; from tissue; host or cells: rat brain homogenate
Experimental: as §1, §2

[3] = molecular target: T1, EphA4; experiment: ephrinA4-induced EphA4 tyrosine phosphorylation in brain slices containing the amygdala (immunoprecipitation, Western blot); format: cell-based; set-up: brain slices that contain the amygdala were divide to 3 groups; from tissue; host or cells: brain slices containing the amygdala; details: pep-ephrinA4 for 20 minutes followed by ephrinA4-Fc for 20 minutes
Experimental: Further, brain slices that contain the amygdala were divide to 3 groups: 1) placed in Ringer's solution, 2) placed in Ringer's solution and stimulated with ephrinA4-Fc for 20 minutes or 3) placed in Ringer's solution with pep-ephrinA4 for 20 minutes followed by stimulation with ephrinA4-Fc for 20 minutes (n=3 each). Protein extracts from the slices were immunoprecipitated with anti-EphA4 antibody and subjected to Western blot with anti-EphA4 or anti-phosphotyrosine antibodies.

Substance | binding to EphA4 receptor (pull-down) [1] | binding to eukaryotic elongation factor 2 (eEF2), control [2] | ephrinA4-induced EphA4 receptor tyrosine phosphorylation [3]
Ac-RRQRYTPFPLGFE-Lys(Biotin)-NH2-0H [peptide 1] | binds | did not bind | abolished
Ac-RRWSGYEACTAEG-Lys(Biotin)-NH2-0H [peptide 2, reference compound] | does not |  | 
